Results from PubChem BioAssay AID489023 (Sanford-Burnham Center for Chemical Genomics, 2010).
pIC50: −log10 of the molar value.

Tested on: 697B cells, BCR-induced NF-kB luciferase reporter luminescence
Assay: inhibitors of BCR-induced NF-kB activation, dose response, 697B cells, luciferase luminescence (AID 489023)

pIC50: 5.18
SMILES: CNC(=O)c1cc(Oc2ccc(NC(=O)Nc3ccc(Cl)c(C(F)(F)F)c3)cc2)ccn1
